MC4R antagonist – human MC4R antagonism in cAMP assay | P32245 | MC4R-expressing cells, MTII-stimulated cAMP, LANCE TR-FRET | inhibition, % at 6.5 µM | 360,000 tested, 0.48% active;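 active = inhibition above its plate's cutoff, the mean of tested wells on that plate plus 3 SD, cut at about 29% in these data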
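Assay system: U2OS cells stably expressing human melanocortin 4 receptor (MC4R) / Dosing: 6.5 µM / Timing: compound 30 min, challenge 1 h, detection 1 h / Measured by: Eu-cAMP/anti-cAMP TR-FRET, emission 671 nm / Replicates: singlicate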
MC4R barr agon – agonists of human melanocortin 4 receptor (MC4R) beta-arrestin | AID 540308 | activation, % at 8.9 µM | 360,000 tested, 0.98% active | U2OS MC4R beta-arrestin complementation, luminescence; percent of melanotan II response, DMSO zero | P32245;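 active = activation above a per-plate cutoff, the mean activation of sample wells on that plate plus 3 SD, cut at about 8% in these data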
Yeast UUG start – alters start codon recognition fidelity in yeast | S. cerevisiae UUG-firefly luciferase reporter, luminescence/redox ratio | activity score, % at 18.7 µM | 350,000 compounds, 0.13% hits | AID 602363;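 active = replicate mean at a twofold rise or more, about +100% in these data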;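 note: firefly luciferase made from a UUG start codon reports start codon fidelity; reporter light over untreated wells divided by growth signal over untreated wells; some hits fall short of that in this replicate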
HDAC3 inh – inhibitors of human histone deacetylase 3; O15379; recombinant HDAC3, fluorogenic peptide/trypsin coupled, fluorescence; inhibition, % at 8.3 µM; 320,000 tested, 0.15% active; AID 2718; in the data active = inhibition above about 26%, passing the limit was not always enough; inconclusive = no clear call, values can overlap the other calls
ALR inh – inhibitors of human sulfhydryl oxidase ALR; inhibition, % (no concentration beside the values); AID 485317; purified ALR, DTT oxidation, H2O2 HRP-luminol luminescence; 290,000 tested, 3.8% active; P55789;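 active means mean and each replicate at 75% or more; inconclusive means only one of the two met; inactive means neither met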;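 further: stock transfer was 7.5 nL into about 7.5 µL; 0% = neutral wells and 100% = wells with inactivated enzyme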
NALP1 yeast inh – inhibitors of NALP1 inflammasome in yeast. AID 2071. inhibition, % at 10 µM. 280,000 tested, 0.61% active. S. cerevisiae NALP1/ASC/caspase-1 growth, X-gal OD620, 72 h; in the data active = inhibition mostly above about 24%, no sharp cut-off; inactive = mostly below about 32%
Hits are given with their value; n = inactive; u = inconclusive; x = no result. Rows were chosen to be rich in hits. Some 4.2% of all compounds tested hit in one or more screens of this group.

SMILES	MC4R antagonist	MC4R barr agon	Yeast UUG start	HDAC3 inh	ALR inh	NALP1 yeast inh
Cc1nc(NC(=O)CSc2ccc(-c3nc4ccccc4[nH]3)cn2)sc1C	n	n	x	n	98.7	n
Cc1ccc(NC(=O)CCCSc2nc3ccccc3[nH]2)cc1	n	n	x	n	n	n
CC(=O)N1[C@H](CO)[C@H](c2ccccc2)[C@@H]1CN(C(=O)c1ccc(F)cc1)C(C)C	x	x	n	x	x	x
Cc1ccc(-c2nc(CS(=O)CC(=O)NCc3ccc4c(c3)OCO4)c(C)o2)cc1 (stereo not given)	n	n	n	u	98.8	n
CCc1ccc(-c2nc(CS(=O)CC(=O)NCc3ccc4c(c3)OCO4)c(C)o2)cc1 (stereo not given)	n	n	n	n	99.4	n
CC(=O)n1nc(-c2ccccc2)nc1NCc1ccc(F)cc1	n	n	n	32.1	n	n
O=C(c1ccco1)n1nc(-c2ccccc2)nc1NCc1ccco1	n	n	n	n	78.2	n
CCC(=O)n1nc(-c2cccnc2)nc1NCc1ccccc1	n	n	x	x	x	n
CCC(=O)n1nc(-c2cccnc2)nc1NCc1ccc(F)cc1	n	n	n	28.7	x	n
C[C@H]1CN([C@@H](C)CO)C(=O)c2cc(-c3cncnc3)cnc2O[C@H]1CN(C)C(=O)Cc1ccccn1	x	x	n	x	x	x
C#CCn1c(=NC(=O)c2ccc(S(=O)(=O)N3CCc4ccccc4C3)cc2)sc2cc(S(N)(=O)=O)ccc21	n	9.2	n	n	n	n
CCCC#Cc1cnc2c(c1)C(=O)N([C@@H](C)CO)C[C@H](C)[C@H](CN(C)C(=O)Nc1ccc(OC)cc1)O2	x	x	n	x	x	x
COc1ccc(-c2csc(=NCCO)n2-c2ccccc2)cc1	n	n	n	n	99.0	n
COc1ccc(-c2csc(=Nc3ccccc3)n2CCO)cc1	n	n	n	n	97.4	n
CO[C@@H]1CN(C)C(=O)c2cc(NC(=O)C3CCC3)ccc2OC[C@H](C)N(Cc2cccnc2)C[C@@H]1C	x	x	n	x	x	x
NNC(=O)c1sc(-c2ccccc2)cc1N	n	n	x	n	n	n
CCOC(=O)c1cc(-c2ccccc2)sc1N	n	n	n	n	98.7	n
COC(=O)c1c(N)sc(C(=O)N2CCOCC2)c1C	n	n	n	n	n	n
CCOC(=O)c1sc(-c2ccccc2)cc1N	n	n	n	n	n	n
NNC(=O)c1cc(-c2ccccc2)sc1N	n	n	n	n	97.1	n
Cc1c(-c2ccccc2)sc(N)c1C(=O)N1CCOCC1	n	n	n	n	98.9	n
CCOC(=O)c1c(N)sc(C(O)(C(F)(F)F)C(F)(F)F)c1-c1ccccc1	n	n	n	n	x	n
CCOC(=O)c1c(N)sc(-c2ccccc2)c1C	n	n	n	n	98.7	n
COCCNC(=O)C[C@@H]1CC[C@@H]2[C@H](COc3ccc(NC(=O)C4CCCC4)cc3C(=O)N2C)O1	x	x	n	x	x	x
CCC(=O)Nc1ccc2c(c1)C(=O)N(C)[C@H]1CC[C@H](CC(=O)NCc3ccccc3)O[C@H]1CO2	x	x	n	x	x	x
SMILES	MC4R antagonist	MC4R barr agon	Yeast UUG start	HDAC3 inh	ALR inh	NALP1 yeast inh
Cn1ccnc1/C(=N\NC(=O)c1ccccc1)c1cccc([N+](=O)[O-])c1	n	n	x	n	95.5	n
O=C(C1=C(O)C(=O)N(CCCN2CCOCC2)C1c1ccc(Cl)cc1)c1cc2ccccc2o1 (stereo not given)	x	x	x	n	92.0	n
Cc1cc2nc(/N=C(\N)NC(=O)N3c4ccccc4Sc4ccccc43)nc(C)c2cc1C	n	n	n	n	92.4	n
Cc1ccc2nc(/N=C(\N)NC(=O)N3c4ccccc4Sc4ccccc43)nc(C)c2c1	n	n	n	n	n	n
CC(NC(=O)CCCCCNC(=O)N1CCn2c1nc1ccccc12)c1ccccc1 (stereo not given)	n	n	n	n	91.6	n
C[C@@H]1CN([C@@H](C)CO)C(=O)Cc2cc(NC(=O)CCC(F)(F)F)ccc2O[C@H]1CN(C)S(=O)(=O)c1ccc(F)cc1	x	x	n	x	x	x
CCN(CC)CC#CCC(O)(c1ccccc1)c1ccccc1	n	n	x	n	n	n
CCN(CC)CC#CCC(C)(c1ccccc1)c1ccccc1	n	n	n	n	n	31.1
C[C@H]1CN([C@@H](C)CO)C(=O)c2cccc(NC(=O)c3cnccn3)c2O[C@@H]1CN(C)C(=O)NC1CCCCC1	x	x	n	x	x	x
CCCN(CCC)CCCNS(=O)(=O)c1ccc2c(c1)oc(=O)n2C	n	n	n	n	n	n
Cn1c(=O)oc2cc(S(=O)(=O)Nc3ccc(O)cc3)ccc21	n	n	n	n	99.5	n
CC(C)OCCCNS(=O)(=O)c1ccc2c(c1)oc(=O)n2C	n	n	n	x	99.0	n
CCOC(=O)C(C)On1c(-c2ccccc2)nc2ccc([N+](=O)[O-])cc21 (stereo not given)	n	n	x	n	97.2	n
CCN1CCS/C1=C\C=C\C1=[N+](CC)CCS1	n	n	n	x	x	n
CCN1CCS/C1=C/C=C/C1=[N+](CC)CCS1	n	n	n	35.7	96.9	n
CN(C)CC(=O)Nc1ccc2c(c1)[C@@H]1C[C@H](CC(=O)NCCc3ccccc3)O[C@H](CO)[C@@H]1O2	x	x	n	x	x	x
Cc1c(NC(=O)/C(C#N)=C/c2ccc(-c3ccccc3Cl)o2)c(=O)n(-c2ccccc2)n1C	n	n	x	n	87.8	n
COc1ccccc1NC(=O)N1CCCCN2[C@H](CO)[C@H](c3ccc(-c4ccccc4)cc3)[C@H]2C1	x	x	n	x	x	x
O=S(=O)(Nc1ccc(N2CCOCC2)cc1)c1ccc(F)cc1	n	n	x	n	u	n
O=S(=O)(Nc1ccc(N2CCCCC2)cc1)c1ccccc1F	n	n	n	n	99.1	n
CN1CCOc2cc(S(=O)(=O)Nc3ccc(F)cc3)ccc21	n	n	n	n	n	26.1
O=S(=O)(Nc1ccc(N2CCCCC2)cc1)c1cccc2cccnc12	n	n	x	n	98.0	x
O=S(=O)(Nc1ccc(N2CCCCC2)cc1)c1ccc(F)cc1	n	n	n	x	98.5	n
O=S(=O)(Nc1ccc(N2CCCCC2)cc1)c1ccc(F)cc1F	n	n	n	n	n	n
CNC(=O)C[C@H]1CC[C@@H]2[C@@H](COc3ccc(NC(=O)C4CCCCC4)cc3C(=O)N2C)O1	x	x	n	x	x	x
CC1Sc2ccc(C(=O)Nc3ccc(S(=O)(=O)N(C)C)cc3)cc2NC1=O (stereo not given)	n	n	n	n	98.2	x
COc1ccc(S(=O)(=O)N(C)C)cc1NC(=O)c1ccc2c(c1)NC(=O)C(C)S2 (stereo not given)	n	n	n	n	n	x
CN(C)S(=O)(=O)c1cccc(NC(=S)Nc2ccc(Cl)cc2Cl)c1	n	n	n	n	98.6	n
CN(C)S(=O)(=O)c1cccc(NC(=S)Nc2cc(Cl)cc(Cl)c2)c1	n	n	n	n	x	n
CCN(CCO)c1ccc(NC(=S)Nc2cccc(S(=O)(=O)N(C)C)c2)cc1	n	n	x	n	98.9	n

Screens as filed in PubChem.
